# From patent US12263171B2, “7-, 8-, and 10-substituted amino triazolo quinazoline derivatives as adenosine receptor antagonists, pharmaceutical compositions and their use” (Merck Sharp & Dohme LLC, priority 2018, dated 2025)
# Sequences of proteins named here, by UniProt entry; tags and fusion partners are left off.
# UniProt P29275, whole entry: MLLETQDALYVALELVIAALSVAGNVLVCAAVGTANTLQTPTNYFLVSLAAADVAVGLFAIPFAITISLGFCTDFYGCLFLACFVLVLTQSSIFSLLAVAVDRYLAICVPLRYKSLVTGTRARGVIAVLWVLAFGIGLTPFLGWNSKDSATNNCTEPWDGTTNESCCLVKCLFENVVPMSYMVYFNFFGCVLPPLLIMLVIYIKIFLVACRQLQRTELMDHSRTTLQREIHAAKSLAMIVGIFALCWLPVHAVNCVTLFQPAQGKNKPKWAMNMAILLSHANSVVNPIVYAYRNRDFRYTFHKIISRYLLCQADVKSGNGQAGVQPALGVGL
# Key:
# [1] = molecular target: T1, human A2b adenosine receptor (Homo sapiens (Human), UniProt P29275); assay: A2B antagonism in cAMP cell-based assay (LANCE cAMP, HEK293 cells, 600 nM adenosine); conditions: read-out: *A2B cAMP IC50; values marked *: cAMP cell-based assay
# [2] = molecular target: human A2a adenosine receptor (Homo sapiens (Human), UniProt P29274); assay: A2A antagonism in cAMP cell-based assay (LANCE cAMP, HEK293 cells, 300 nM adenosine); conditions: read-out: *A2A cAMP IC50; values marked *: cAMP cell-based assay
# [3] = molecular target: T1, human A2b adenosine receptor; assay: A2b radioligand filtration binding assay (tritiated proprietary A2b antagonist, HEK293 membranes); conditions: unstarred
A2B binding % inh. @ 10000 nM [3],Compound,IC50 [1],IC50 [2]
,"CCC1CCC(c2nc3c4ccc(OC)cc4nc(N)n3n2)CN1c1cnn(CC(C)(C)O)c1 (single isomer, unassigned)",2390 nM,68.8 nM
27% inh. @ 10000 nM,"COc1ccc2c(c1)nc(N)n1nc(C3CC(F)CN(c4cnn(CC(C)(C)O)c4)C3)nc21 (single isomer, unassigned)",,125 nM
